The target of the test is Solute carrier family 22 member 6 (Homo sapiens, UniProt Q4U2R8). As to the kind of experiment: TP_TRANSPORTER: inhibition of PAH uptake in OAT1-COS7 cells.

By UniProt entry, the sequences of proteins in these tests, tags left out. Where a name states a change or a piece, a line headed by the entry shows the natural chain unless it says otherwise.
UniProt Q4U2R8: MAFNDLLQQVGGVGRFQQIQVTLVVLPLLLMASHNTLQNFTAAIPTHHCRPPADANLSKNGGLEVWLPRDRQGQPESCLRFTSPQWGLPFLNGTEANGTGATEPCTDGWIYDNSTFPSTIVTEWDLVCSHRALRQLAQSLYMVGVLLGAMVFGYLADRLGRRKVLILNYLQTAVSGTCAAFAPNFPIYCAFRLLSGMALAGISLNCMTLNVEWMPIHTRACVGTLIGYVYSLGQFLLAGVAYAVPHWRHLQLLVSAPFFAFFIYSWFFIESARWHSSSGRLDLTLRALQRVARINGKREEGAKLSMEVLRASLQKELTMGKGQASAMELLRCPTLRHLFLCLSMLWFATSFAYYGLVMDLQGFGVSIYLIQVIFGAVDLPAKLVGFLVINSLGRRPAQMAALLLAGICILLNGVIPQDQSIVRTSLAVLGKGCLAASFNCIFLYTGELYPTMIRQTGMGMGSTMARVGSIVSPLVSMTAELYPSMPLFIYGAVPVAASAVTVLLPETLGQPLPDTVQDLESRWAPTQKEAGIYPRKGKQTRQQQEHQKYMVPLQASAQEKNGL

In general, IC50 refers to the concentration that gives 50% inhibition. Higher therefore signals a need for much substance. As for `N[C@H](CSC(F)(F)C(F)Cl)C(=O)O` (stereo partly specified), the IC50 was 177 µM.

For the origin of these results see BindingDB's records for 12538807.
